From patent US10220090B2, “BCMA Antigen binding proteins” (Amgen Inc., priority 2012, dated 2019)

Chains of the proteins cited; added tags and fusions are not shown. Residues count along the entry.
UniProt Q12306, 1-98 limits assumed: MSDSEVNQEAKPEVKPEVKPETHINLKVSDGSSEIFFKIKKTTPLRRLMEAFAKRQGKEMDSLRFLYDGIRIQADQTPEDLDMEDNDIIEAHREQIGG

Experiments:
BCMA on H929 cells = target: T1, BCMA on H929 cells (Homo sapiens, UniProt Q02223, N81S); experiment: FACS binding to native BCMA on H929 myeloma cells
T1 construct: host or cells: H929
T1 sequence (Q02223 1-184 N81S): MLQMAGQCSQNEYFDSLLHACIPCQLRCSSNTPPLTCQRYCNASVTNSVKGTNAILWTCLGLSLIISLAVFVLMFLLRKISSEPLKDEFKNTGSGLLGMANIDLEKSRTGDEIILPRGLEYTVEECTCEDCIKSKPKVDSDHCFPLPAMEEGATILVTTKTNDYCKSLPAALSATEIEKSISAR
Procedure: Approximately 10 to 40×10^6 of H929 myeloma cells were resuspended in a staining solution (2% goat serum, 1% rabbit serum, 0.02% azide in PBS) and aliquoted into round-bottom, 96-well plate (Corning Incorp., Acton, Mass.) as per the experiment design. The cells were incubated at 4 degrees celsius for 30 minutes to block non-specific sites. The antibodies were titrated into the staining solution. The cells were rinsed in a rinse solution (PBS+0.02% azide) by resuspending the cells in 200 ul/well. The cells were centrifuged at 1500 rpm at 4 degrees celsius for 7 minutes. The rinse solution was removed and the rinse step was repeated. […] The cells/antibodies were rinsed as described above to remove excess/unbound antibody. After the last rinse, the cells were resuspended in 200 ul of rinse solution with a drop of staining solution added to keep the cells from aggregating.
The antibodies were tested for binding to BCMA endogenously-expressed on a variety of cells, including the H929 cell line, which were developed from B-lymphocytes from a myeloma/plasmacytoma patient (ATCC, Manassa, Va.) using standard FACs techniques. […] The supernatants were removed and the cell pellets were resuspended in 0.2 mL/tube 4% paraformaldehyde in PBS and analyzed by flow cytometry

[1] = target: T2, Sumo (cleaved from SumoBCMA) (Saccharomyces cerevisiae, UniProt Q12306); experiment: Size exclusion chromatography control with Sumo; type: binding; conditions: SEC control
T2 construct: 6xHis (N)
Procedure: A Superdex 200™ 10/30 cm SEC column (GE Healthcare Life Sciences) was used according to the manufacturer's recommended condision and run in phosphate buffered saline (PBS). Incubations of antibody with excess levels of sumoBCMA were performed at room temperature for at least 30 minutes.

human BCMA = target: T3, human BCMA (Homo sapiens, UniProt Q02223, N81S); experiment: FACS binding on cells transiently transfected to express full length BCMA
T3 construct: expressed in transfected cells
T3 sequence (Q02223 1-184 N81S): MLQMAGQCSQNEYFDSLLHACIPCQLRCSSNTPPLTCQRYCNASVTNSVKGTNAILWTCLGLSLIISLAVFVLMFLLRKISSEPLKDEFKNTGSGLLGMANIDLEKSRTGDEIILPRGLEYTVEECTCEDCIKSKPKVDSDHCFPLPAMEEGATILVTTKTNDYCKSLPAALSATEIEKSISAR
Procedure: An important criterion is exquisite selectivity for wild-type human BCMA expressed on the surface of cells. FACS binding on cells transiently transfected to express full length BCMA, TACI, or BAFF-R was performed using standard techniques. Approximately 40×10^6 of the transiently-transfected target cells were resuspended in a staining solution (2% goat serum, 1% rabbit serum, 0.02% azide in PBS) and aliquoted into round-bottom, 96-well plate (Corning Incorp., Acton, Mass.) as per the experiment design. The cells were incubated at 4 degrees celsius for 30 minutes to block non-specific sites. The antibodies were titrated into the staining solution. The cells were rinsed in a rinse solution (PBS+0.02% azide) by resuspending the cells in 200 ul/well. The cells were centrifuged at 1500 rpm at 4 degrees celsius for 7 minutes. The rinse solution was removed and the rinse step was repeated. The cells were resuspended in the appropriate antibody solution (see the matrix in TABLE 4) at 30 ul/well and incubated at 4 degrees celsius for 30 minutes. […] For the mouse IgG1 negative control and the two mouse antibodies (1.183 and 1.288), the secondary reagent was an anti-mouse IgG-PE conjugate (BD Pharmingen Cat. 550589). The cells/antibodies were rinsed as described above to remove excess/unbound antibody. […] Samples were read at 532 nm wavelength on FACS. […]

B1: Ab-5: parental fully human anti-huBCMA mAb 2A1, Vh SEQ ID NO:214, Vl 248; heavy chain SEQ ID NO:287, light chain 288 (antibody)
heavy: EVQLVESGGGLVKPGRSLRLSCTASGFTFGDYALSWFRQAPGKGLEWVGVSRSKAYGGTTDYAASVKGRFTISRDDSKSFAYLQMNSLKTEDTAVYYCCSSGYSSGWTPFDYWGQGTLVTVSSASTKGPSVFPLAPSSKSTSGGTAALGCLVKDYFPEPVTVSWNSGALTSGVHTFPAVLQSSGLYSLSSVVTVPSSSLGTQTYICNVNHKPSNTKVDKKV[omitted - human IgG1 Fc]
light: QSVLTQPPSASGTPGQRVTISCSGSSSNIGSNTVNWYQQLPGTAPKLLIFNYHQRPSGVPDRFSGSKSGSSASLAISGLQSEDEADYYCAAWDDSLNGWVFGGGTELTVLGQPKAAPSVTLFPPSSEELQANKATLVCLISDFYPGAVTVAWKADSSPVKAGVETTTPSKQSNNKYAASSYLSLTPEQWKSHRSYSCQVTHEGSTVEKTVAPTECS
binding to human BCMA on the surface of H929 myeloma cell line (BCMA on H929 cells): bound to human BCMA | binding to Sumo [1]: did not bind to Sumo | BCMA (FACS binding) (human BCMA): + (A sample was considered positive for binding if the MFI was two times the negative control value)
